# Test system: SW-620
# Assay: Antiproliferative activity against human SW620 cells harboring KRAS mutant assessed as inhibition of cell growth incubated for 5 days by IncuCyte live-cell imaging analysis
# Format: functional, cell-based
# Conditions: SW-620, 120 h, time 5 day
structure (smiles),measurement,value
Nc1ncccc1-c1nc2ccc(-c3ccccc3)nc2n1-c1ccc(C2(N)CCC2)cc1 [MIRANSERTIB],GI50,5.2 µM
